IC50 data for six molecules are collected here from patent US8962641B2, “Pyrimidine-substituted pyrrolidine derivatives, pharmaceutical compositions and uses thereof” (Boehringer Ingelheim International GmbH, priority 2013, dated 2015).

Protein sequences, listed by entry. Tags and fused reporters are not part of them. Residues count along the entry.
UniProt O00763, 129-2458 limits assumed: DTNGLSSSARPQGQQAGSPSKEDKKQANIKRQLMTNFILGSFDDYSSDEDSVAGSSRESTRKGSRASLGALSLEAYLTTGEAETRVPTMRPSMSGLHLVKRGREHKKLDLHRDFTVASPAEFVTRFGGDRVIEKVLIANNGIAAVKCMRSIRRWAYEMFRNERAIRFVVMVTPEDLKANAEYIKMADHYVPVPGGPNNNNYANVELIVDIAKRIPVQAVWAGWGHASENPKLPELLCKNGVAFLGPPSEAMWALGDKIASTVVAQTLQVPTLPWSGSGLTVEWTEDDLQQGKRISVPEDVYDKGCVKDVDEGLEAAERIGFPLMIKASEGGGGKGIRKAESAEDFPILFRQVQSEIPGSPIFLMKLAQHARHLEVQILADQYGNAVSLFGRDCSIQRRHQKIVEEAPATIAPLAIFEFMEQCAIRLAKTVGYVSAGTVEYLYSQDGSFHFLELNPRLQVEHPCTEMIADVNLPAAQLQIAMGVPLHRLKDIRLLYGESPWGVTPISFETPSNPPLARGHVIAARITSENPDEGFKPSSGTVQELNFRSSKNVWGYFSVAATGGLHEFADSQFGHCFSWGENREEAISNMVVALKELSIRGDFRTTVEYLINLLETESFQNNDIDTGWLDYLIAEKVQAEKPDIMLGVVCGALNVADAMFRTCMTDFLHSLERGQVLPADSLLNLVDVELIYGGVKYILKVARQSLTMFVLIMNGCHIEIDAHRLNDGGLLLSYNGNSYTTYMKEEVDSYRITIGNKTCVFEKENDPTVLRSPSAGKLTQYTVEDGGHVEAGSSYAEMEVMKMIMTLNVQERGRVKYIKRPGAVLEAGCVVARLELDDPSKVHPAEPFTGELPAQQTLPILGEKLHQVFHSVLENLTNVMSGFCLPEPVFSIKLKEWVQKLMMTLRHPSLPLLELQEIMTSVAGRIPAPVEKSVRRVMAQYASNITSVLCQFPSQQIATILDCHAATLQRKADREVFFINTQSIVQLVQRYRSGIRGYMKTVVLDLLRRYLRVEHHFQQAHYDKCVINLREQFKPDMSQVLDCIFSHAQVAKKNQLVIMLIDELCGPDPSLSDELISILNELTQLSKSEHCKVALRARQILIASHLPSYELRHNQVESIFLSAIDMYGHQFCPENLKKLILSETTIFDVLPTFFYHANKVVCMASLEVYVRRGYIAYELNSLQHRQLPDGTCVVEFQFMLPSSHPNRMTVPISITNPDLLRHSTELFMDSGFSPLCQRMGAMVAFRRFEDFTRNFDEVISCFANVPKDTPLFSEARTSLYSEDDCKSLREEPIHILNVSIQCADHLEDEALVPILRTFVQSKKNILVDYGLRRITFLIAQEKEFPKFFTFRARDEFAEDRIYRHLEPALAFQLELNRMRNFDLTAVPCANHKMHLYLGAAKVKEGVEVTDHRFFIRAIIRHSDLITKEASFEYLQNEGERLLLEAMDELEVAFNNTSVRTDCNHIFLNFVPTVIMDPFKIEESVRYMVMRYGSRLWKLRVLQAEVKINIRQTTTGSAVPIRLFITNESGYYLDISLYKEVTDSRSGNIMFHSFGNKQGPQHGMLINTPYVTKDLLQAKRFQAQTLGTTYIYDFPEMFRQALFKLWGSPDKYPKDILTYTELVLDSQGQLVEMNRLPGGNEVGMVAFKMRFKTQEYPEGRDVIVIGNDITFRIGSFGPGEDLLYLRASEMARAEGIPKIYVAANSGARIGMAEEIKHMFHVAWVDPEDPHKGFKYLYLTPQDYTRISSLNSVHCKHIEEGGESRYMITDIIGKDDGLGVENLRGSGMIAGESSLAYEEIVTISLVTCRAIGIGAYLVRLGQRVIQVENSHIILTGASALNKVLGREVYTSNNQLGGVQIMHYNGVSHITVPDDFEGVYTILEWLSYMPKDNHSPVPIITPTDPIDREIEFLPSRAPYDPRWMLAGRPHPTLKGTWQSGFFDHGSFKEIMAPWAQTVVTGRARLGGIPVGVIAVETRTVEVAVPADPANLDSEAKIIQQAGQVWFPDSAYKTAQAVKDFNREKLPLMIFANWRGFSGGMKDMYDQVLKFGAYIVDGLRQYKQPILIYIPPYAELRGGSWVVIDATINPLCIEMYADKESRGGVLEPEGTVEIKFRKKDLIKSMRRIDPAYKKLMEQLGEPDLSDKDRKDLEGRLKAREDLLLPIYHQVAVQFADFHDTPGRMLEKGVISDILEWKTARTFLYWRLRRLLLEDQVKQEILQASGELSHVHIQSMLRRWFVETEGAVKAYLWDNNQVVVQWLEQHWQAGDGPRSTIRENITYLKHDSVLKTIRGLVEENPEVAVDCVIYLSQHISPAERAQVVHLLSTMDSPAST

The assay deals with human ACC2 (Homo sapiens (Human), UniProt O00763). Put plainly: ACC2 assay (spectrophotometric 384 well assay, NADH-linked kinetic method). The settings on record: hACC2 construct lacking 128 N-terminal amino acids; coupled lactate dehydrogenase/pyruvate kinase reaction, 340 nm, 25° C.

In turn, `COC1CCCN(c2ncc(Cl)c(N3CC[C@@H](Oc4ccc([C@H](C)NC(C)=O)cc4)C3)n2)C1` (stereo partly drawn) registered an IC50 of 277 nM. This counts as sub-micromolar.

With `CCC(=O)N[C@@H](C)c1ccc(O[C@@H]2CCN(c3ncnc(OCC4CC4)c3OC)C2)cc1`, the IC50 worked out at 77 nM.

`CCCOc1cnc(N2CC[C@@H](Oc3ccc([C@H](C)NC(C)=O)cc3)C2)nc1`: the IC50 was found to be 1010 nM. This IC50 is about 13-fold higher than that of the molecule before.

`CCc1cnc(N2CC[C@@H](Oc3ccc([C@H](C)NC(C)=O)cc3)C2)nc1` showed an IC50 of 1030 nM.

On to `CCc1cnc(N2CC[C@H](Oc3ccc([C@H](C)NC(C)=O)cc3)C2)nc1`, for which the IC50 is 2180 nM.

In turn, `CC(=O)N[C@@H](C)c1ccc(O[C@@H]2CCN(c3ncnc(N4CCCC4)c3C)C2)cc1` gave an IC50 of 251 nM.

Usually IC50 stands for the concentration that gives 50% inhibition. A low value points to higher potency.
